## Reported intrinsic clearance values for industrial, environmental and drug-like chemicals

From the experimental data distributed with OPERA 2.9.

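The numbers are reported measurements, compiled and curated for the OPERA QSAR suite. The files give a single number for a compound and property, which may rest on several reports. Conditions of the individual experiments are not part of the data. Where a salt, mixture or single isomer is drawn, the source does not say that exactly this form was tested. Unmarked limits or estimates from the upstream databases cannot be ruled out.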

Intrinsic clearance (human, µL/min per 10^6 hepatocytes): higher is faster turnover, and 0 stands for none detected.

- Cc1c(N(C)C)c(=O)n(-c2ccccc2)n1C [Aminopyrine]: Clint 3.772 µL/min/10^6 cells
- CCOC(=O)COc1cc(-n2ncc(C(F)(F)F)c(C)c2=O)c(F)cc1Cl [Flufenpyr-ethyl]: Clint 375 µL/min/10^6 cells
- CCCCCCCCCCCCCOS(=O)(=O)[O-].[Na+] [Sodium tridecyl sulfate]: Clint 43.1 µL/min/10^6 cells
- C[C@]12C=CC(=O)C=C1CC[C@@H]1[C@@H]2[C@@H](O)C[C@@]2(C)[C@H]1CC[C@]2(O)C(=O)CO [Prednisolone]: Clint 5.841 µL/min/10^6 cells
- Nc1nc(N)c2nc(-c3ccccc3)c(N)nc2n1 [Triamterene]: Clint 0 µL/min/10^6 cells
- CN1CCN(CC(=O)N2c3ccccc3C(=O)Nc3cccnc32)CC1 [Pirenzepine]: Clint 0 µL/min/10^6 cells
- CSc1ccc2c(c1)N(CCC1CCCCN1C)c1ccccc1S2 (stereo not drawn) [Thioridazine]: Clint 0.915 µL/min/10^6 cells
- CC(C)(C)NC[C@H](O)COc1nsnc1N1CCOCC1 [Timolol]: Clint 4.176 µL/min/10^6 cells
- CC(C)(C)NCC(O)c1cc(O)cc(O)c1 (stereo not drawn) [Terbutaline]: Clint 0 µL/min/10^6 cells
- CN(C)c1ccc(C(c2ccccc2)c2ccc(N(C)C)cc2)cc1 [Leucomalachite green]: Clint 0 µL/min/10^6 cells
- C[Si]1(C)O[Si](C)(C)O[Si](C)(C)O[Si](C)(C)O[Si](C)(C)O1 [Decamethylcyclopentasiloxane]: Clint 0 µL/min/10^6 cells
- COC(=O)C(C)Oc1ccc(Oc2ncc(C(F)(F)F)cc2Cl)cc1 (stereo not drawn) [Haloxyfop-methyl]: Clint 467 µL/min/10^6 cells
- COc1ccccc1OCCNCC(O)COc1cccc2[nH]c3ccccc3c12 (stereo not drawn) [Carvedilol]: Clint 50.9 µL/min/10^6 cells
- CC(=O)[C@H]1CC[C@H]2[C@@H]3CCC4=CC(=O)CC[C@]4(C)[C@H]3CC[C@]12C [Progesterone]: Clint 33.7 µL/min/10^6 cells
- O=C(O)c1ccccc1C(c1ccc(O)cc1)c1ccc(O)cc1 [Phenolphthalin]: Clint 1.85 µL/min/10^6 cells
- COc1ccc(CCN2C(=O)N(NS(C)(=O)=O)C[C@H]2c2ccc(OC)cc2)cc1: Clint 20.42 µL/min/10^6 cells
- CC(=O)OC[C@H]1O[C@@](COC(C)=O)(O[C@H]2O[C@H](COC(C)=O)[C@@H](OC(C)=O)[C@H](OC(C)=O)[C@H]2OC(C)=O)[C@@H](OC(C)=O)[C@@H]1OC(C)=O [Sucrose octaacetate]: Clint 194 µL/min/10^6 cells
- CCc1ccc(CCOc2ccc(CC3SC(=O)NC3=O)cc2)nc1.Cl (stereo not drawn) [Pioglitazone hydrochloride]: Clint 8.92 µL/min/10^6 cells
- CCCCOC(=O)[C@@H](C)Oc1ccc(Oc2ccc(C(F)(F)F)cn2)cc1 [Fluazifop-p-butyl]: Clint 306.6 µL/min/10^6 cells
- CCCCCCOc1ccc(N)cc1 [4-hexyloxyanilline]: Clint 79.3 µL/min/10^6 cells
- CCc1occc(=O)c1O [2-ethyl-3-hydroxy-4h-pyran-4-one]: Clint 81 µL/min/10^6 cells
- CCCCCC(CCC)C(=O)O (stereo not drawn) [ 2-Propylheptanoic acid ]: Clint 0.0143 µL/min/10^6 cells
- Cc1nc2n(c(=O)c1CCN1CCC(c3noc4cc(F)ccc34)CC1)CCCC2 [Risperidone]: Clint 10.9 µL/min/10^6 cells
- Cc1ccc(S(=O)(=O)Nc2c(C(=O)N[C@@H](C)C(C)(C)C)c(C)nn2-c2ccccc2)cc1: Clint 6.99 µL/min/10^6 cells
- CC(C)(c1ccc(O)cc1)c1ccc(O)cc1 [Bisphenol-a]: Clint 19.9 µL/min/10^6 cells
- COc1cccc([C@H](O)C2CCN(CCc3ccc(F)cc3)CC2)c1OC [Volinanserin]: Clint 5.464 µL/min/10^6 cells
- O=C1NC(=O)C(c2ccccc2)(c2ccccc2)N1 [Phenytoin]: Clint 0.8178 µL/min/10^6 cells
- CCCCCOC(=O)COc1cc(N2C(=O)C3=C(CCCC3)C2=O)c(F)cc1Cl: Clint 432 µL/min/10^6 cells
- CCCCCCCCCCCCCOP(=O)(O)O [Monotridecyl phosphate]: Clint 18.8 µL/min/10^6 cells
- c1ccc2ccccc2c1 [Naphthalene]: Clint 10.39 µL/min/10^6 cells
- CCCCC(C)C(=O)O (stereo not drawn) [ 2-Methylhexanoic acid ]: Clint 3.95 µL/min/10^6 cells
- O=C1Nc2ccc(Cl)cc2[C@@](C#Cc2ccccn2)(C2CC2)N1 [L-738,372]: Clint 0 µL/min/10^6 cells
- CCCCOC(=O)CCCCC(=O)OCCCC [Dibutyl hexanedioate]: Clint 14.03 µL/min/10^6 cells
- CC(=O)O.CC(=O)O.N=C(NCCCCCCNC(=N)NC(=N)Nc1ccc(Cl)cc1)NC(=N)Nc1ccc(Cl)cc1 [Chlorhexidine diacetate]: Clint 0 µL/min/10^6 cells
- Cc1noc2cc(N3CCN(C(=O)[C@@H]4CCCC[C@H]4C(=O)NC4(C#N)CC4)[C@H](C)C3)ccc12: Clint 30.2 µL/min/10^6 cells
- COc1cccc2c1C(=O)c1c(O)c3c(c(O)c1C2=O)C[C@@](O)(C(=O)CO)C[C@@H]3O[C@H]1C[C@H](N)[C@H](O)[C@H](C)O1.Cl [Adriamycin hydrochloride]: Clint 0 µL/min/10^6 cells
- CC1=CC(=O)CC(C)(C)C1 [Isophorone]: Clint 18.7 µL/min/10^6 cells
- C[C@]12CC[C@@H]3c4ccc(O)cc4C[C@@H](CCCCCCCCCS(=O)CCCC(F)(F)C(F)(F)F)[C@H]3[C@@H]1CC[C@@H]2O (stereo partly specified) [Fulvestrant]: Clint 2.4 µL/min/10^6 cells
- COc1ccc(-c2ccc3c(N4CCOC[C@@H]4C)nc(N4CCOC[C@@H]4C)nc3n2)cc1C(=O)N(C)C: Clint 4.27 µL/min/10^6 cells
- Cc1ccc(C)c(C)c1 [1,2,4-trimethylbenzene]: Clint 1.846 µL/min/10^6 cells
- Cc1ccc(C)c(O)c1 [2,5-dimethylphenol]: Clint 33.8 µL/min/10^6 cells
- Oc1ccccc1O [Catechol]: Clint 42.3 µL/min/10^6 cells
- NNC(=O)c1ccncc1 [Isoniazide]: Clint 1.11 µL/min/10^6 cells
- CN1C(=O)CC[C@H]1c1cccnc1 [Cotinine]: Clint 0 µL/min/10^6 cells
- Cc1ccc(C)c(O)c1C [2,3,6-trimethylphenol]: Clint 106 µL/min/10^6 cells
- CNC(=NC#N)NCCSCc1nc[nH]c1C [Cimetidine]: Clint 5.452 µL/min/10^6 cells
- C[C@]12C=CC(=O)C=C1CC[C@H]1[C@@H]3C[C@@H](O)[C@](O)(C(=O)CO)[C@@]3(C)C[C@H](O)[C@@]12F [Triamcinolone]: Clint 2.492 µL/min/10^6 cells
- O=c1c(O)c(-c2ccc(O)c(O)c2)oc2cc(O)cc(O)c12 [Quercetin]: Clint 75.2 µL/min/10^6 cells

The first 6 entries again:

- Cc1c(N(C)C)c(=O)n(-c2ccccc2)n1C [Aminopyrine]: Clint 3.772 µL/min/10^6 cells
- CCOC(=O)COc1cc(-n2ncc(C(F)(F)F)c(C)c2=O)c(F)cc1Cl [Flufenpyr-ethyl]: Clint 375 µL/min/10^6 cells
- CCCCCCCCCCCCCOS(=O)(=O)[O-].[Na+] [Sodium tridecyl sulfate]: Clint 43.1 µL/min/10^6 cells
- C[C@]12C=CC(=O)C=C1CC[C@@H]1[C@@H]2[C@@H](O)C[C@@]2(C)[C@H]1CC[C@]2(O)C(=O)CO [Prednisolone]: Clint 5.841 µL/min/10^6 cells
- Nc1nc(N)c2nc(-c3ccccc3)c(N)nc2n1 [Triamterene]: Clint 0 µL/min/10^6 cells
- CN1CCN(CC(=O)N2c3ccccc3C(=O)Nc3cccnc32)CC1 [Pirenzepine]: Clint 0 µL/min/10^6 cells